Protein sequences, listed by entry. Tags and fused reporters are not part of them.
UniProt P31652, whole entry: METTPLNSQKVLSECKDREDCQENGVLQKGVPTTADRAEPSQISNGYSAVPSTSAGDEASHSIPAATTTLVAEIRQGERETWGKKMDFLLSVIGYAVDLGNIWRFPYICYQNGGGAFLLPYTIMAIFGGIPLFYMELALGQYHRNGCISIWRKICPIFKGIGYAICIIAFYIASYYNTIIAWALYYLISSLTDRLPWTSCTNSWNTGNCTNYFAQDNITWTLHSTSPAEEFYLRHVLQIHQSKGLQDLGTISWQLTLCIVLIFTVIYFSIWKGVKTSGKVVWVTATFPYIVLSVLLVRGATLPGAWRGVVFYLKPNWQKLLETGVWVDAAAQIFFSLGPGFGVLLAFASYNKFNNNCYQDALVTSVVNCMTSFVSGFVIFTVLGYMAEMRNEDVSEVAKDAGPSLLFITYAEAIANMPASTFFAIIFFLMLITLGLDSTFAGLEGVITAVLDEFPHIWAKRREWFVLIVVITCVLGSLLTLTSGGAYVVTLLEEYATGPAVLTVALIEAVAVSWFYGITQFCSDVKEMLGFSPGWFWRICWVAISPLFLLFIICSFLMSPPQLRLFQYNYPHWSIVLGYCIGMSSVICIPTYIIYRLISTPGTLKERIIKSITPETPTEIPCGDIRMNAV
UniProt P10980, whole entry: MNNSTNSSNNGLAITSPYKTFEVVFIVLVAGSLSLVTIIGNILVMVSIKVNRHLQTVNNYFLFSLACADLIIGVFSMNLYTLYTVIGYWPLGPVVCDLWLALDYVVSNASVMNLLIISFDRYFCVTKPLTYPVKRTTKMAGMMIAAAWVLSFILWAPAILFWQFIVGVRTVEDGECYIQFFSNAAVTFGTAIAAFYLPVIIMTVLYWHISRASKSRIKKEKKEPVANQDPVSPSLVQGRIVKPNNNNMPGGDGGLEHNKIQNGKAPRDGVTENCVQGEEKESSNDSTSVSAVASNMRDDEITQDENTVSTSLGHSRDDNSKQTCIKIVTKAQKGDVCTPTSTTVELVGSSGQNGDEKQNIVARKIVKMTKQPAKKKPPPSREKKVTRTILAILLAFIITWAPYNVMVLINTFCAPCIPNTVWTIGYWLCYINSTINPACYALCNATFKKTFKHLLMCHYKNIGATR

In BindingDB's records for PubMed 6310078 (Pfizer, 1983):

Assays:
[1] = molecular target: Sodium-dependent serotonin transporter (Rattus norvegicus, UniProt P31652)
[2] = molecular target: Muscarinic acetylcholine receptor M2 (Rattus norvegicus, UniProt P10980)

Row | SMILES | Ki [1] [nM] | Ki [2] [nM]
1 | N[C@H]1CC[C@@H](c2ccc(Cl)c(Cl)c2)c2ccccc21 | 450 | –
2 | CN[C@@H]1CC[C@@H](c2ccccc2)c2ccccc21 | 840 | –
3 | CN1C2CC(OC(=O)C(CO)c3ccccc3)CC1C1OC12 (stereo not drawn) [3-hydroxy-2-phenyl-propionic acid 9-methyl-3-oxa-9-aza-tricyclo[3.3.1.0*2,4*]non-7-yl ester] | – | 7
